# Test results taken from patent publication US10494332B2, “Protein tyrosine phosphatases or SHP2 inhibitors and uses thereof” (Indiana University Research and Technology Corporation, priority 2015, dated 2019).
# Experiments:
# [1] = guinea pig, in vivo
# [2] = system: panel of PTPs; type: biochemical
Structure (SMILES),Signs of toxicity [1],Activity against mPTPB or a panel of human PTPs [2],Inhibition of other PTPs at (up to) 100 μM [2]
Cc1c(Br)cc(NC(=O)CS(=O)(=O)O)cc1Br,no overt signs of toxicity,no significant activity,
O=C(O)c1cc2c(C#Cc3cccc(C(F)(F)F)c3)c(-c3ccccc3)oc2cc1O [Compound L01Z08],no overt signs of toxicity,,
O=C(Nc1nc2ccc(O[N+](=O)[O-])cc2s1)C(c1ccccc1)S(=O)(=O)O (stereo not drawn) [Compound L319N15-07],,,no detectable inhibition
O=C(CS(=O)(=O)O)Nc1nc2ccc([N+](=O)[O-])cc2s1 [Compound L335N15-07],,,no detectable inhibition
O=C(CS(=O)(=O)O)Nc1nc2ccccc2s1 [Compound L335N15],,,did not inhibit
